We go through 1 substance from patent US20220195388A1.

Chains of the proteins cited; added tags and fusions are not shown. Residues count along the entry.
UniProt P07766, 23-207: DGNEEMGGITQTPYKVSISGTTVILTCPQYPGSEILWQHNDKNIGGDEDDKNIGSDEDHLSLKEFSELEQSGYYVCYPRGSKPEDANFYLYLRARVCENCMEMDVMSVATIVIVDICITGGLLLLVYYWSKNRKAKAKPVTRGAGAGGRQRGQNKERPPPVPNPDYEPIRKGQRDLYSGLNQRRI

The target in this assay is CD3 (TCR/CD3 complex) on the surface of Jurkat cells, PBMCs and T responder cells (UniProt P07766). Briefly: flow cytometry, PBMCs stained with OKT3 Fab-multimers, treated with D-biotin and washed; remaining Fab monomers detected with fresh PE-labeled Strep-Tactin; live cells.

Turning to “αCD3 Fab fragment derived from OKT3, heavy chain C-terminally fused to the Twin-Strep-tag (monomeric, not multimerized)”, the percentage of cells within gate is 0.018%.
